For 30 molecules, Ki results are on record in ChEMBL document CHEMBL1139143, “Synthesis and structure-activity relationships of N-substituted spiropiperidines as nociceptin receptor ligands” (Bioorg Med Chem Lett, 2007).

In one experiment the target is Nociceptin receptor (Homo sapiens, UniProt P41146). Put plainly: Displacement of [125I]nociceptin from human nociceptin receptor expressed in CHO cell membrane. Background: Displacement assays read how much labelled ligand stays bound in the presence of the test substance.
For experiment [1], the target named is Delta-type opioid receptor (Homo sapiens, UniProt P41143). Put plainly: Displacement of [3H]diprenorphine from human delta opioid receptor expressed in CHO cell membrane.
The target in experiment [2] is Kappa-type opioid receptor (Homo sapiens, UniProt P41145). Put plainly: Displacement of [3H]diprenorphine from human kappa opioid receptor expressed in CHO cell membrane.
A further experiment concerns the target Mu-type opioid receptor (Homo sapiens, UniProt P35372). Put plainly: Displacement of [3H]diprenorphine from human mu opioid receptor expressed in CHO cell membrane.

Broadly, the Ki is a measure of affinity in units of concentration, obtained from inhibition or displacement. Turning to `CC(c1ccccc1)N1CCC2(CC1)C(=O)NCN2c1ccccc1` (stereo not drawn), the inhibitory constant (Ki) at Nociceptin receptor came to 3.5 nM; in experiment [1] it was 1040 nM; in experiment [2], 50 nM; on Mu-type opioid receptor, 74 nM.
In the same order, the values of `O=C1NCN(c2ccccc2)C12CCN(C(c1cccc(Cl)c1)c1cccc(Cl)c1)CC2` are 249 nM, 26500 nM, 4630 nM and 1620 nM.
`O=C1NCN(c2ccccc2)C12CCN(C1CCCc3ccc(F)cc31)CC2` (stereo not drawn): the Ki was determined as 0.9 nM on Nociceptin receptor, 2650 nM in experiment [1], 33.5 nM in experiment [2] and 133 nM on Mu-type opioid receptor.
In the same order, the values of `O=C1NCN(c2ccccc2)C12CCN(C(c1ccccc1)c1ccccc1Cl)CC2` (stereo not drawn) are 9 nM, 14800 nM, 1090 nM and 778 nM.
For `Cc1ccccc1C(c1ccccc1)N1CCC2(CC1)C(=O)NCN2c1ccccc1` (stereo not drawn) the same measures were 11.5 nM, 6040 nM, 579 nM and 1110 nM.
`CCC(c1ccccc1)N1CCC2(CC1)C(=O)NCN2c1ccccc1` (stereo not drawn): the Ki on Nociceptin receptor turned out to be 17 nM; in experiment [1] it was 6850 nM; in experiment [2], 60.5 nM; on Mu-type opioid receptor, 355 nM.
In the same order, the values of `O=C1NCN(c2ccccc2)C12CCN(C1CCCc3c(Cl)cccc31)CC2` (stereo not drawn) are 2 nM, 2270 nM, 94.5 nM and 130 nM.
With `O=C1NCN(c2ccccc2)C12CCN(C1CCCc3ccccc31)CC2` (stereo not drawn), the Ki at Nociceptin receptor turned out to be 1.4 nM; in experiment [1], 3510 nM; in experiment [2], 65 nM; at Mu-type opioid receptor, 346 nM.
For `O=C1NCN(c2ccccc2)C12CCN(CC1CCCCC1)CC2` the same measures were 61.2 nM, 73700 nM, 517 nM and 887 nM.
In the same order, the values of `O=C1NCN(c2ccccc2)C12CCN(C1c3ccccc3C=Cc3ccccc31)CC2` are 36.5 nM, 11500 nM, 776 nM and 475 nM.
For `O=C1NCN(c2ccccc2)C12CCN(Cc1ccsc1)CC2` the same measures were 14 nM, 9000 nM, 26.2 nM and 133 nM.
In the case of `O=C1NCN(c2ccccc2)C12CCN(C(c1ccccc1)c1ccccc1F)CC2` (stereo not drawn), the Ki worked out at 10.8 nM on Nociceptin receptor, 15700 nM in experiment [1], 1180 nM in experiment [2] and 818 nM at Mu-type opioid receptor.
In the same order, the values of `O=C1NCN(c2ccccc2)C12CCN(C(c1ccccc1)c1ccc(Cl)cc1)CC2` (stereo not drawn) are 140 nM, 24800 nM, 3530 nM and 5080 nM.
Regarding `O=C1NCN(c2ccccc2)C12CCN(C(c1ccccc1F)c1ccccc1F)CC2`, the Ki at Nociceptin receptor turned out to be 6.3 nM; in experiment [1] it was 16000 nM; in experiment [2], 858 nM; at Mu-type opioid receptor, 567 nM.
In the same order, the values of `O=C1NCN(c2ccccc2)C12CCN(Cc1ccccn1)CC2` are 119 nM, 31900 nM, 321 nM and 1760 nM.
In the same order, the values of `O=C1NCN(c2ccccc2)C12CCN(C1CCCc3ccc(Cl)cc31)CC2` (stereo not drawn) are 10.8 nM, 2510 nM, 66.5 nM and 162 nM.
For `O=C1NCN(c2ccccc2)C12CCN(C1CCCc3cccc(Cl)c31)CC2` (stereo not drawn) the same measures were 2.6 nM, 1380 nM, 143 nM and 11.1 nM.
For the molecule `CC1(C)CCC(N2CCC3(CC2)C(=O)NCN3c2ccccc2)c2cc(Cl)c(Cl)cc21` (stereo not drawn), the Ki on Nociceptin receptor was determined as 15.1 nM; in experiment [1] it was 11700 nM; in experiment [2] it was 938 nM; at Mu-type opioid receptor, 977 nM.
For `O=C1NCN(c2ccccc2)C12CCN(C(c1ccccc1)C1CCCC1)CC2` (stereo not drawn) the same measures were 4.6 nM, 4680 nM, 26 nM and 398 nM.
In the same order, the values of `Cc1ccccc1C(c1ccccc1C)N1CCC2(CC1)C(=O)NCN2c1ccccc1` are 9 nM, 8600 nM, 1600 nM and 346 nM.
In the case of `O=C1NCN(c2ccccc2)C12CCN(C1CCCc3c(F)cccc31)CC2` (stereo not drawn), the Ki on Nociceptin receptor amounted to 0.8 nM; in experiment [1], 2400 nM; in experiment [2] it was 13.7 nM; on Mu-type opioid receptor it was 72.3 nM.
In the case of `O=C1NCN(c2ccccc2)C12CCN(C(c1cccc(F)c1)c1cccc(F)c1)CC2`, the Ki came out at 250 nM at Nociceptin receptor, 10400 nM in experiment [1], 1450 nM in experiment [2] and 3190 nM at Mu-type opioid receptor.
In the same order, the values of `O=C1NCN(c2ccccc2)C12CCN(C1c3ccccc3CCc3ccccc31)CC2` are 225 nM, 9780 nM, 1670 nM and 2450 nM.
For `CCCC(c1ccccc1)N1CCC2(CC1)C(=O)NCN2c1ccccc1` (stereo not drawn) the same measures were 2.4 nM, 3370 nM, 22.5 nM and 244 nM.
In the same order, the values of `CC1(C)CCC(N2CCC3(CC2)C(=O)NCN3c2ccccc2)c2ccc(F)cc21` (stereo not drawn) are 8.4 nM, 2460 nM, 169 nM and 59.1 nM.
For the molecule `O=C1NCN(c2ccccc2)C12CCN(Cc1ccccc1)CC2`, the Ki came out at 11 nM at Nociceptin receptor, 2950 nM in experiment [1], 196 nM in experiment [2] and 500 nM on Mu-type opioid receptor.
In the same order, the values of `CC1(C)CCC(N2CCC3(CC2)C(=O)NCN3c2ccccc2)c2ccc(Cl)cc21` (stereo not drawn) are 1.4 nM, 1290 nM, 282 nM and 49.1 nM.
On to `O=C1NCN(c2ccccc2)C12CCN(C1CCCCc3ccccc31)CC2` (stereo not drawn), for which the Ki at Nociceptin receptor amounted to 14.5 nM; in experiment [1], 1910 nM; in experiment [2], 203 nM; at Mu-type opioid receptor it was 673 nM.
For `O=C1NCN(c2ccccc2)C12CCN(C(c1ccc(F)cc1)c1ccc(F)cc1)CC2` the same measures were 49 nM, 5600 nM, 2010 nM and 787 nM.
For the molecule `O=C1NCN(c2ccccc2)C12CCN(Cc1ccccc1Cl)CC2`, the values for the Ki (at Nociceptin receptor; in experiment [1]) were 3.2 nM and 725 nM, respectively.
